Some results are limits rather than exact numbers.

IC50 data for one molecule are collected here from patent US20250032629A1, “NOVEL NUCLEOLIN-BINDING PEPTIDE AND USE THEREOF” (ANYGEN CO., LTD., priority 2020, published 2025).

One experiment concerns MCF-7. Briefly: Cytotoxicity of AGM-330-CPP fusion peptides. The experiment is classed as cell-based, Human. The following applies: MCF-7, fusion peptide alone, Example 11.
In a further experiment the test system is HCT-116. Briefly: Cytotoxicity of AGM-330-CPP fusion peptides. The format is cell-based, Human. As to conditions: HCT-116, fusion peptide alone, Example 11.

In the case of `CC[C@H](C)[C@H](NC(=O)[C@H](CCCNC(=N)N)NC(=O)[C@H](CC(C)C)NC(=O)[C@@H](NC(=O)[C@H](CCCNC(=N)N)NC(=O)[C@H](CCSC)NC(=O)[C@@H](NC(=O)[C@@H](N)CCCNC(=N)N)[C@@H](C)CC)[C@@H](C)CC)C(=O)N[C@@H](CC(C)C)C(=O)N[C@@H](CCCCN)C(=O)N[C@@H](CC(C)C)C(=O)N[C@@H](C)C(=O)N[C@@H](CCCNC(=N)N)C(=O)NC(CSSC[C@@H](NC(=O)CCOCCOCCOCCOCCOCCOCCNC(=O)[C@H](CCCCN)NC(=O)[C@H](CC(C)C)NC(=O)[C@H](Cc1ccc(O)cc1)NC(=O)[C@@H](NC(=O)[C@H](CCSC)NC(=O)[C@H](C)NC(=O)CNC(=O)[C@H](Cc1c[nH]cn1)NC(=O)[C@@H](N)CCCNC(=N)N)C(C)C)C(=O)O)C(=O)O` (some centres unmarked) [AGM-330m-mCPP], the IC50 (usually the concentration at which inhibition is half-maximal) in the experiment with MCF-7 is over 20 µM; with HCT-116 it was 23.3 µM.
